The subject of this assay is Mfn1/Mfn2 double null MEFs. In words: Mitochondrial elongation in Mfn1/Mfn2 double null MEFs. It counts as cell-based, mouse.

In the case of `CC(Sc1nnc(C2CC2)n1-c1ccccc1)C(=O)Nc1sc2c(c1C(N)=O)CCC2` (stereo not shown) [compound B, 2-{2-[(5-cyclopropyl-4-phenyl-4H-1,2,4-triazol-3-yl)sulfanyl]propanamido}-4H,5H,6H-cyclopenta[b]thiophene-3-carboxamide], the “mitochondrial elongation in absence of both mitofusins” value is on record as “did not occur”.
